From PubChem BioAssay AID651654 (Broad Institute, 2012)
Only a part is listed here, and it is no random draw. Active and inactive are the calls of the source.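 Rule for the calls: active = mean lysis activity across replicates of at least 80%, whatever share of replicates individually reach that level; inactive = mean lysis activity below 80%.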

Test: fungicidal lysis via adenylate kinase leakage – AK release luminescence, single concentration, primary screen (AID 651654)
Details: C. neoformans lysis, 4 h, at 15 µM, hits give high values, normalised: neutral wells 0, clomiphene wells 100
How it was run: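 Material – Cryptococcus neoformans yeast cells · Quantity – 5 × 10^6 yeast cells/mL · Buffer or medium – YPD medium · Compound – single dose · Timing – 4 h static compound exposure, 37 °C, read 1 h post-reagent · Signal – adenylate kinase release luminescence · Read-out basis – lysis from increased AK signal · Benchmarks – Clomiphene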
With `CCC(=O)N(c1ccccc1)C1(COC)CCN(CCn2nnn(CC)c2=O)CC1` the lysis activity was inactive: -0.448%.
In the case of `CCC(=O)N(c1ccccc1)C1(COC)CCN(CCc2cccs2)CC1`, the lysis activity is reported as inactive: 1.26%.
